For one compound, Ratio IC50 results are on record in ChEMBL document CHEMBL4396963, “An exploration of solvent-front region high affinity moiety leading to novel potent ALK & ROS1 dual inhibitors with mutant-combating effects” (Bioorg Med Chem, 2019).

Amino acid sequences for entries named in this document (tags omitted). A change or cut given only in a name is not applied to a line headed by its entry.
UniProt P08922: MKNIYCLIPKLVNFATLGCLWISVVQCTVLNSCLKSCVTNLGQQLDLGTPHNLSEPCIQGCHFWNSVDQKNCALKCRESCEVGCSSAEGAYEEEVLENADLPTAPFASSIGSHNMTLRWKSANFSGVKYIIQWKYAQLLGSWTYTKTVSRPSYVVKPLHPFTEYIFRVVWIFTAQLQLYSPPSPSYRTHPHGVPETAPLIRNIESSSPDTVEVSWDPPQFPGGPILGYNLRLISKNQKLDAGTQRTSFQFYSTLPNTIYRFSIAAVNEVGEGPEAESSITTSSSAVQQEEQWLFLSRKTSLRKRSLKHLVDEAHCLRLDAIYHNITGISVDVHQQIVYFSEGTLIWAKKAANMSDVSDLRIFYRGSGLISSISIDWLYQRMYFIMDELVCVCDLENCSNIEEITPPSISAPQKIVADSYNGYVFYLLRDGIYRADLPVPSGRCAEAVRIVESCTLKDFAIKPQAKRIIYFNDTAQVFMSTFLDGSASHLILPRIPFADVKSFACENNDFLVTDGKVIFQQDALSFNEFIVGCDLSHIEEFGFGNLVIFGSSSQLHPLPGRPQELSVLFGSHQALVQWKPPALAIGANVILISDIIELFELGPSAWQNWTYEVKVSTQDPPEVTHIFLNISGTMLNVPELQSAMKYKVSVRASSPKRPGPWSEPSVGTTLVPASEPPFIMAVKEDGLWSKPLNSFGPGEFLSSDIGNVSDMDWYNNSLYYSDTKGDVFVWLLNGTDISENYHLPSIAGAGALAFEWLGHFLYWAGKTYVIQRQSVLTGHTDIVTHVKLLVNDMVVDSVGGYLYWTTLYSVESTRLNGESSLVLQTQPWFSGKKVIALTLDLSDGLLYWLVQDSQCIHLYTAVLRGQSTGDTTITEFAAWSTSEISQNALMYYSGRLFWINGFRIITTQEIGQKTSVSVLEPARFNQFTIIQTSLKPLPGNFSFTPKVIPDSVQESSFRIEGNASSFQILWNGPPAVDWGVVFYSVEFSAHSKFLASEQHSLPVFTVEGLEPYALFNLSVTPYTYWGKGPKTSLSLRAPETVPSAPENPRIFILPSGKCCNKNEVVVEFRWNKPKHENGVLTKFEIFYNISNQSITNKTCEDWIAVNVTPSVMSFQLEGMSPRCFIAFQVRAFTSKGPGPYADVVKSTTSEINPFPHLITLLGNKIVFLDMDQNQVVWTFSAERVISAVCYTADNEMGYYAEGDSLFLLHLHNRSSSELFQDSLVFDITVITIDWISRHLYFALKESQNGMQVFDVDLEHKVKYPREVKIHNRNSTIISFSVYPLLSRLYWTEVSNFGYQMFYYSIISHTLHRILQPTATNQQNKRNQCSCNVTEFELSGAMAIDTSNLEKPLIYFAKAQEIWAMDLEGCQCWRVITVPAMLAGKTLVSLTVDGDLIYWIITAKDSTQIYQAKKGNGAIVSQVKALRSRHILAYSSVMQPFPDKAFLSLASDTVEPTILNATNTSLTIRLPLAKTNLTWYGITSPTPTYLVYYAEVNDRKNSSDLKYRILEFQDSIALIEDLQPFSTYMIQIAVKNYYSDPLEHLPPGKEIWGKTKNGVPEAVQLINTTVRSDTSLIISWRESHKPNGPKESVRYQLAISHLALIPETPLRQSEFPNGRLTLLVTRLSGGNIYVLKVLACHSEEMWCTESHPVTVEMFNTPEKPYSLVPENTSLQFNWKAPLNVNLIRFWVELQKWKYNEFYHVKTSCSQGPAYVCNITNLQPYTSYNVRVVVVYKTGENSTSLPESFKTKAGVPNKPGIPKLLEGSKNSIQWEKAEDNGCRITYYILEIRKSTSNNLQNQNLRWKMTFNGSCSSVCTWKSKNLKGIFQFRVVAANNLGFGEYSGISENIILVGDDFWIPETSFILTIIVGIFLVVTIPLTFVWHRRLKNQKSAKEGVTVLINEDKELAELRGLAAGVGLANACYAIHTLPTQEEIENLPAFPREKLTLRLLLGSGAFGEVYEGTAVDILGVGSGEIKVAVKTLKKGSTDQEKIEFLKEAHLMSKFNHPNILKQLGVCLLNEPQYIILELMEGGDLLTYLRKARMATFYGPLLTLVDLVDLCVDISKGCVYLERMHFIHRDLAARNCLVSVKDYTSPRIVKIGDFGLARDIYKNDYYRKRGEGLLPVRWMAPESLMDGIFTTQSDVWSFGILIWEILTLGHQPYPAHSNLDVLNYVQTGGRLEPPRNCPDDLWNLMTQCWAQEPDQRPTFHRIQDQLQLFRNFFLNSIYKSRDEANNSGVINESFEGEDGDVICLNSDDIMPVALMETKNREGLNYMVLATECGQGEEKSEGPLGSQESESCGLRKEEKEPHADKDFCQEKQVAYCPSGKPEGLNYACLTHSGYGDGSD
ALK tyrosine kinase receptor (Homo sapiens), Q9UM73, UniProt Q9UM73, whole entry L1196M, looked up: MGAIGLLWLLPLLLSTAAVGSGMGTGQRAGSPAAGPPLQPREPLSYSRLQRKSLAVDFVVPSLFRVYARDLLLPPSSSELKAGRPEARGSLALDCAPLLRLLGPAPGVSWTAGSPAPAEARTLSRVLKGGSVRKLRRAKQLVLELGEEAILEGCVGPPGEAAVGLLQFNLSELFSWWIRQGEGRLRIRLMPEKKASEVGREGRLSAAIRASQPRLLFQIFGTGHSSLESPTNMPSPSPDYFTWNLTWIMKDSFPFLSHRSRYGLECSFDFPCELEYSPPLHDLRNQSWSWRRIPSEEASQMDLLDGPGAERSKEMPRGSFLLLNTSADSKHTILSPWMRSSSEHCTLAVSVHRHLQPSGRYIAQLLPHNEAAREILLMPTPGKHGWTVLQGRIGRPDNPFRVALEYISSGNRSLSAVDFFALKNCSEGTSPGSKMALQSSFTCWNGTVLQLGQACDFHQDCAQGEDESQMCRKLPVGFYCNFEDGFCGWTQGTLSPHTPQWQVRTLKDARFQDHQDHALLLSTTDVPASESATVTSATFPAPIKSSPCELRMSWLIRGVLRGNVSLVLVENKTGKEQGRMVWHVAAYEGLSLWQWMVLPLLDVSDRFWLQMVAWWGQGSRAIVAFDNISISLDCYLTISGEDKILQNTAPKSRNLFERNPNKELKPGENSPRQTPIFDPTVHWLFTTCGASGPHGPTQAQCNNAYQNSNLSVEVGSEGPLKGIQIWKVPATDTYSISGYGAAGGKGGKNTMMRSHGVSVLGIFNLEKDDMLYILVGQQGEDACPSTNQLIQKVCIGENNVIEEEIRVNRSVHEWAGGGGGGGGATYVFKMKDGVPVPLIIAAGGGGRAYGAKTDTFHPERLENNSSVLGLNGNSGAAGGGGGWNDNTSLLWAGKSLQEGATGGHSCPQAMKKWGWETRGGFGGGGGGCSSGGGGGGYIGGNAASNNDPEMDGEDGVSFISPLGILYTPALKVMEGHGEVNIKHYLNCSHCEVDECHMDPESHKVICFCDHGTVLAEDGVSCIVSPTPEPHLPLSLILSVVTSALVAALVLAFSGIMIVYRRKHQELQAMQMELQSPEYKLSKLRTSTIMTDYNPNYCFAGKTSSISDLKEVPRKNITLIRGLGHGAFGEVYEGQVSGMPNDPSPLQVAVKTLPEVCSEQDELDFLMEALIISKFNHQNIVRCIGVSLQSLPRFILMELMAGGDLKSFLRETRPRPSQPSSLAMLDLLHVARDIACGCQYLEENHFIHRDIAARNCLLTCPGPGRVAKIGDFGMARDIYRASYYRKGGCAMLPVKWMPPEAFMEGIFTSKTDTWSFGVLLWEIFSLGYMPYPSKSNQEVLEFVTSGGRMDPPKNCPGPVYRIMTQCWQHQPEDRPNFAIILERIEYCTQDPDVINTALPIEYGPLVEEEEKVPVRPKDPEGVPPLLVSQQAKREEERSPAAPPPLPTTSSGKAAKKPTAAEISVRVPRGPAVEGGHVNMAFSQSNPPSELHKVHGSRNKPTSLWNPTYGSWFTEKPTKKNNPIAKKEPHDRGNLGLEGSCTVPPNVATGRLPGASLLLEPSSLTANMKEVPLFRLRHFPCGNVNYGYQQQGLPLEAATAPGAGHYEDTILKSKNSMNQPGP
ALK tyrosine kinase receptor (Homo sapiens), Q9UM73, UniProt Q9UM73, whole entry G1202R: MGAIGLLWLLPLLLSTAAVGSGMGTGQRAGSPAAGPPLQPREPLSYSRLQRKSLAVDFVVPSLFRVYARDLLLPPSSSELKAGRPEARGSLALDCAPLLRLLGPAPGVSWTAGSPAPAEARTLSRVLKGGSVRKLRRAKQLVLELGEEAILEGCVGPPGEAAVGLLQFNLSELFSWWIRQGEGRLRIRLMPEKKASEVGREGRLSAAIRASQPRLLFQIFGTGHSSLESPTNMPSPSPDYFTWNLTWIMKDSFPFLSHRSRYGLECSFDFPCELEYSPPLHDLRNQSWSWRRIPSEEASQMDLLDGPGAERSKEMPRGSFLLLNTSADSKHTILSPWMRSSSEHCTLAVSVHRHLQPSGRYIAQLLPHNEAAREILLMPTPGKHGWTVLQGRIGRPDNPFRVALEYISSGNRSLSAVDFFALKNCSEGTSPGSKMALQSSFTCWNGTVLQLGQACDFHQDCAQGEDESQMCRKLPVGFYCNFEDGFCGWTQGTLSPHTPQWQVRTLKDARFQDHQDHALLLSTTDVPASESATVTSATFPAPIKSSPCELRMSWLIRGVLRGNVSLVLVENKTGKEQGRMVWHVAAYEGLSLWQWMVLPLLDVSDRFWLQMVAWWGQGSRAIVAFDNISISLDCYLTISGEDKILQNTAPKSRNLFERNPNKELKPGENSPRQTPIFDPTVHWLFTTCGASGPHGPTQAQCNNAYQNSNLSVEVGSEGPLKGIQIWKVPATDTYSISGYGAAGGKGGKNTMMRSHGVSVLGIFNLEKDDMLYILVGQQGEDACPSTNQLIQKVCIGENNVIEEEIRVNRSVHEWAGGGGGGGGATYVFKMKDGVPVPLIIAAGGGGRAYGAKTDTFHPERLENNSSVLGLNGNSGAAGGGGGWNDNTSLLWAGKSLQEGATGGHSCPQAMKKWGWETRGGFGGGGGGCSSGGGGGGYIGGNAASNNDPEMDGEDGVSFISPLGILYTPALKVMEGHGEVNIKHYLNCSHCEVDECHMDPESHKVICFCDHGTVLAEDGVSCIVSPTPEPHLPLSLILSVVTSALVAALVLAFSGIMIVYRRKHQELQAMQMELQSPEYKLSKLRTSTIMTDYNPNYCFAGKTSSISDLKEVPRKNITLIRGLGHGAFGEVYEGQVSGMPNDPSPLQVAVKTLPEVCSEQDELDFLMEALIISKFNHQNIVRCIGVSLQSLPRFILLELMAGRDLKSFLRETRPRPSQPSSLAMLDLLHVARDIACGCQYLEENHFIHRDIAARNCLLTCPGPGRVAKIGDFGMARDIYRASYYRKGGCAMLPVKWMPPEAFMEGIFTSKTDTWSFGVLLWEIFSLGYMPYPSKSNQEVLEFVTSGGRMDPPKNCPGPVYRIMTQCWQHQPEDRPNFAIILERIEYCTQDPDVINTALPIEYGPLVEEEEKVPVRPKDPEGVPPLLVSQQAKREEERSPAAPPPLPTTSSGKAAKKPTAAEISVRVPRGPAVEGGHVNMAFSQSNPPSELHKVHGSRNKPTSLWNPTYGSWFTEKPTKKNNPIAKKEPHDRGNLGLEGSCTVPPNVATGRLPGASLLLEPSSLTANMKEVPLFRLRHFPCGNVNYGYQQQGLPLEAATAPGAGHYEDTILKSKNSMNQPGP

For assay [1], the target named is Proto-oncogene tyrosine-protein kinase ROS (Homo sapiens, UniProt P08922). The assay is described as follows: Potency index, ratio of IC50 of ceritinib to IC50 of compound for inhibition of recombinant human N-terminal GST-tagged ROS (1883 to 2347 residues) cytoplasmic domain expressed in baculovirus expression system using IRS1 as substrate incubated for 1 hr by mobility shift assay.

For assay [2], the system named is ALK tyrosine kinase receptor (Homo sapiens), Q9UM73 [L1196M]. Description: Potency index, ratio of IC50 of ceritinib to IC50 of compound for inhibition of recombinant human N-terminal GST-tagged ALK (1058 to 1620 residues) cytoplasmic domain expressed in baculovirus expression system L1196M mutant using srctide as substrate incubated for 1 hr by mobility shift assay.

The test system of assay [3] is ALK tyrosine kinase receptor (Homo sapiens), Q9UM73 [G1202R]. The assay is described as follows: Potency index, ratio of IC50 of ceritinib to IC50 of compound for inhibition of recombinant human N-terminal GST-tagged ALK (1058 to 1620 residues) cytoplasmic domain G1202R mutant expressed in baculovirus expression system using srctide as substrate incubated for 1 hr by mobility shift assay.

Turning to `COc1cc(NC(=O)N2CCOCC2)ccc1Nc1ncc(Cl)c(Nc2ccccc2NC(C)=O)n1`, the figures for the Ratio IC50 in assay [1], in assay [2] and in assay [3] were 5.9, 3.4 and 45, respectively.
